Laboratory results as given in PMC10779987, “Machine-Learning- and Structure-Based Virtual Screening for Selecting Cinnamic Acid Derivatives as Leishmania major DHFR-TS Inhibitors” (Molecules, 2023).

Chains of the proteins cited; added tags and fusions are not shown. Lines headed by an entry give the natural chain unless they say otherwise; changes in a name come on top.
UniProt P07382: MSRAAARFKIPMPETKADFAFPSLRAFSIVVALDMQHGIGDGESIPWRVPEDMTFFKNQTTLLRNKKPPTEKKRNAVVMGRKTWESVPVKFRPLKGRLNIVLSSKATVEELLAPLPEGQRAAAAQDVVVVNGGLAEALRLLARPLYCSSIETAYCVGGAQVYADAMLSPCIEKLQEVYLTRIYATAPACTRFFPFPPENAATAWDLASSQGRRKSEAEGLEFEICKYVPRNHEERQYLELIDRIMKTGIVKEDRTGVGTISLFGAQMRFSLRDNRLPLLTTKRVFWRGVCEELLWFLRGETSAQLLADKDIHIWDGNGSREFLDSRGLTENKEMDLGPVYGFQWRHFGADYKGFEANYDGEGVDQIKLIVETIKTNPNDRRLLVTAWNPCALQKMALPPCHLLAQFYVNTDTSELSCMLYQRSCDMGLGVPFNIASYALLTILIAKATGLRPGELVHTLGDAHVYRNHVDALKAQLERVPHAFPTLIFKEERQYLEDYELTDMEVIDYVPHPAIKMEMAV

Target: LmDHFR-TS (Leishmania major, UniProt P07382)
Assay: LmDHFR-TS enzymatic inhibition assay (spectrophotometric standard DHFR assay)
Conditions: HsDHFR versus LmDHFR-TS

COc1ccc(C[C@H]2COC(=O)[C@@H]2Cc2cc(OC)c(O)c(-c3cc(C[C@H]4C(=O)OC[C@@H]4Cc4ccc(OC)c(OC)c4)cc(OC)c3O)c2)cc1OC [Compound 306, diarctigenin]
SI (selectivity index): 4.6

COc1cc(C[C@H]2COC(=O)[C@@H]2Cc2cc(OC)c3c(c2)[C@H](CO)[C@@H](c2ccc(O)c(OC)c2)O3)ccc1O [Compound 308, isolappaol A]
SI (selectivity index): 4.4
